PMC7290078, “Agonist bias and agonist‐dependent antagonism at corticotrophin releasing factor receptors” (Pharmacology Research & Perspectives, 2020)

Key:
Format in all cases: cell-based
CRF2 receptor (hCRF2α) [1] = target: T1, CRF2 receptor (hCRF2α) (Homo sapiens, UniProt Q13324); experiment: IP1 accumulation (IP-one Gq) in Cos7 cells transfected with hCRF2α, agonist stimulation; settings: 90 min at 37°C, 50 mmol/L LiCl, 1 pmol/L to 10 µmol/L agonist, mean ± SEM, n = 5
T1 construct: host or cells: Cos7 cells, transient transfection (PEI), pcDNA3.0/3.1 vector
T1 sequence (Q13324 1-411): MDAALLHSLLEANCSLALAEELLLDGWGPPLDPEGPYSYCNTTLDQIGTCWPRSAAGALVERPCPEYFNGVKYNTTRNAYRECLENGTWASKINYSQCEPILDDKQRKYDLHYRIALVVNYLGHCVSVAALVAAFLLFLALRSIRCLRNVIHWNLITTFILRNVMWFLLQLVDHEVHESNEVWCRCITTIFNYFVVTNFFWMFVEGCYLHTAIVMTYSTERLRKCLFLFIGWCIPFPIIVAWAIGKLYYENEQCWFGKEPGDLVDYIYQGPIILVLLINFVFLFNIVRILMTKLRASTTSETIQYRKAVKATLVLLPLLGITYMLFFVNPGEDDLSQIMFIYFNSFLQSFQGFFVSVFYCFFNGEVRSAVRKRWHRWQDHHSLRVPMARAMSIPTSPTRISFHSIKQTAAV
Source text: (§1) Plasmids containing hCRF1α and hCRF2α (GenBank accession numbers AY457172 and AY449734) were obtained from the cDNA Resource Centre (Bloomsburg University) and are referred to as CRF1 and CRF2 in this manuscript. Hemagglutinin (HA) epitope‐tagged human Calcitonin (CT) receptor (CT(a) splice variant) and myc‐tagged human RAMP1 were used as described previously. ^27 HA‐tagged human calcitonin receptor‐like receptor (CLR), N‐terminal FLAG‐tagged human RAMP3 and N‐terminal myc‐tagged human RAMP3 were a gift from Professor David Poyner (Aston University) and Professor Patrick Sexton (Monash University), respectively. […]
(§2) Cos7, HEK‐293S, and HEK‐293T cells were cultured as described previously. ^28 , ^29 Cos7 cells were originally supplied by the ATCC to Associate Professor Nigel Birch (University of Auckland). […] For transfection, cells were counted (Countess CounterTM; Life Technologies) and plated at a density of 20 000 cells per well in 96‐well plates. […]
(§3) The IP‐one Gq assay kit (Cisbio) was used to quantify accumulated myo‐inositol‐1‐phosphate (IP1), a by‐product of IP3 produced after receptor‐mediated Gαq activation in Cos7 and HEK‐293S cells. […] Fifteen microliters of sample was then transferred to a 384‐well optiplate and read by an Envision plate reader (PerkinElmer). IP1 concentrations were calculated from a standard curve generated in duplicate. […]

CRF1 receptor (hCRF1α) [2] = target: T2, CRF1 receptor (hCRF1α) (Homo sapiens, UniProt P34998); experiment: ERK1/2 phosphorylation (AlphaLISA Surefire Ultra) in Cos7 cells transfected with hCRF1α; settings: pERK1/2, hCRF1α, 7 min at 37°C, 1 pmol/L to 1 µmol/L agonist, mean ± SEM, n = 5
T2 construct: host or cells: Cos7 cells, transient transfection (PEI), pcDNA3.0/3.1 vector
T2 sequence (P34998 24-415): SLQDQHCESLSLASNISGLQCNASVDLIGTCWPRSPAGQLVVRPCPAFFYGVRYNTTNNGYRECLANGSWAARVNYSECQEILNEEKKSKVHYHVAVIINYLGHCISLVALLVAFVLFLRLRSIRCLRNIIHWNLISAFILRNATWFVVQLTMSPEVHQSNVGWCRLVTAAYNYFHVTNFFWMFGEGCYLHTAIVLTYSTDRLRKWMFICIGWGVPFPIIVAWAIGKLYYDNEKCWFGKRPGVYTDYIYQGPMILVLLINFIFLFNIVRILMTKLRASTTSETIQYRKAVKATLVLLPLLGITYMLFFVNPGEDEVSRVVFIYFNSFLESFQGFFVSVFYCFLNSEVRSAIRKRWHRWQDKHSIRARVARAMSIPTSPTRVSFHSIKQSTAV
Source text: as §1, with “respectively. N‐terminal FLAG‐tagged human RAMP2 was used as described previously. ^28 All receptors and RAMPs were cloned in pcDNA3.0 or pcDNA3.1 plasmid vectors.” for “respectively.”
as §2
(§4) The AlphaLISA Surefire Ultra extracellular signal‐regulated kinase 1/2 (ERK1/2) phosphorylation (pERK1/2) assay kit (PerkinElmer Life and Analytical Sciences) was used to measure pERK1/2 in cell lysates after agonist stimulation. […] Samples were read using an Envision plate reader (PerkinElmer). […]

CRF2 receptor (hCRF2α) [3] = target: T1, CRF2 receptor (hCRF2α); experiment: ERK1/2 phosphorylation (AlphaLISA Surefire Ultra) in Cos7 cells transfected with hCRF2α; settings: pERK1/2, hCRF2α, 7 min at 37°C, 1 pmol/L to 1 µmol/L agonist, mean ± SEM, n = 5
Source text: as §1, with “respectively. N‐terminal FLAG‐tagged human RAMP2 was used as described previously. ^28 All receptors and RAMPs were cloned in pcDNA3.0 or pcDNA3.1 plasmid vectors.” for “respectively.”
as §2, §4

CRF1 receptor (hCRF1α) [4] = target: T2, CRF1 receptor (hCRF1α); experiment: IP1 accumulation (IP-one Gq) in Cos7 cells transfected with hCRF1α, agonist stimulation; settings: 90 min at 37°C, 50 mmol/L LiCl, 1 pmol/L to 10 µmol/L agonist, mean ± SEM, n = 5
Source text: as §1, §2, §3

CRF2 receptor (hCRF2α) [5] = target: T1, CRF2 receptor (hCRF2α); experiment: cAMP accumulation (LANCE) in Cos7 cells transfected with hCRF2α, agonist stimulation; settings: 15 min at 37°C, 1 mmol/L IBMX, 1 pmol/L to 1 µmol/L agonist, mean ± SEM, n = 5
Source text: as §1, §2
(§5) cAMP accumulation in Cos7 cells transfected with hCRF1α or hCRF2α receptors was measured using the LANCE cAMP detection assay kit (PerkinElmer Life and Analytical Sciences) as described previously. ^30 Briefly, culture media was removed and replaced with DMEM containing 0.1% bovine albumin serum (BSA) and 1 mmol/L 3‐isobutyl‐1‐methylxanthine (IBMX) for 30 minutes at 37°C. […]

CRF1 receptor (hCRF1α) [6] = target: T2, CRF1 receptor (hCRF1α); experiment: cAMP accumulation (LANCE) in Cos7 cells transfected with hCRF1α, agonist stimulation; settings: 15 min at 37°C, 1 mmol/L IBMX, 1 pmol/L to 1 µmol/L agonist, mean ± SEM, n = 5
Source text: as §1, §2, §5

- EC50 (CRF2 receptor (hCRF2α) [1]): 51.3 nM
- EC50 (CRF1 receptor (hCRF1α) [2]): > 1000 nM
- EC50 (CRF2 receptor (hCRF2α) [3]): 0.661 nM
- EC50 (CRF1 receptor (hCRF1α) [4]): > 1000 nM
- EC50 (CRF2 receptor (hCRF2α) [5]): 0.0457 nM
- EC50 (CRF1 receptor (hCRF1α) [6]): > 1000 nM
SMILES: CC[C@H](C)[C@H](NC(=O)[C@H](CCC(N)=O)NC(=O)[C@H](C)NC(=O)[C@H](CCSC)NC(=O)[C@H](CC(C)C)NC(=O)[C@H](Cc1c[nH]cn1)NC(=O)[C@H](C)NC(=O)[C@H](CC(N)=O)NC(=O)[C@H](C)NC(=O)[C@H](C)NC(=O)[C@H](C)NC(=O)[C@H](CCC(N)=O)NC(=O)[C@H](C)NC(=O)[C@H](CCCNC(=N)N)NC(=O)[C@H](CC(C)C)NC(=O)[C@H](CC(N)=O)NC(=O)[C@H](CCCCN)NC(=O)[C@H](C)NC(=O)[C@H](CCCCN)NC(=O)[C@H](C)NC(=O)[C@@H](NC(=O)[C@H](CC(N)=O)NC(=O)[C@H](Cc1ccccc1)NC(=O)[C@H](CC(C)C)NC(=O)[C@H](CC(C)C)NC(=O)[C@H](CC(N)=O)NC(=O)[C@H](CCSC)NC(=O)[C@@H](NC(=O)[C@H](CC(N)=O)NC(=O)[C@@H](NC(=O)[C@@H]1CCCN1C(=O)[C@@H](NC(=O)[C@H](CC(=O)O)NC(=O)[C@H](CC(C)C)NC(=O)[C@H](CO)NC(=O)[C@H](CC(C)C)NC(=O)[C@@H](NC(=O)[C@@H](N)Cc1ccccc1)[C@@H](C)O)C(C)C)[C@@H](C)O)[C@@H](C)CC)[C@@H](C)CC)C(N)=O [UCN3]
